Experiment [1] in a line: Binding affinity to synthetic biotin-labeled 30-mer GC-rich duplex DNA in pH 7.4 EDTA buffer solution in presence of 0.05 M NaCl at 25 degC by QCM sensogram analysis.
A short description of experiment [2]: Binding affinity to synthetic biotin-labeled 30-mer AT-rich duplex DNA in pH 7.4 EDTA buffer solution in presence of 0.05 M NaCl at 25 degC by QCM sensogram analysis.
Experiment [3] is described as follows: Binding affinity to synthetic biotin-labeled 30-mer GC-rich duplex DNA in pH 7.4 EDTA buffer solution in presence of 50 mM NaCl at 25 degC by QCM sensogram analysis.
Experiment [4] in a line: Ratio of Ka for synthetic biotin-labeled 30-mer GC-rich duplex DNA in presence of 200 mM NaCl to Ka for synthetic biotin-labeled 30-mer GC-rich duplex DNA in presence of 50 mM NaCl.
A short description of experiment [5]: Binding affinity to synthetic biotin-labeled 30-mer GC-rich duplex DNA in pH 7.4 EDTA buffer solution in presence of 200 mM NaCl at 25 degC by QCM sensogram analysis.
Experiment [6] in a line: Binding affinity to synthetic biotin-labeled 30-mer AT-rich duplex DNA in pH 7.4 EDTA buffer solution assessed as ratio of association rate constant to dissociation rate constant in presence of 0.05 M NaCl at 25 degC by QCM sensogram analysis.
Experiment [7] in a line: Binding affinity to synthetic biotin-labeled 30-mer GC-rich duplex DNA in pH 7.4 EDTA buffer solution assessed as dissociation rate constant in presence of 0.05 M NaCl at 25 degC by QCM sensogram analysis.
A short description of experiment [8]: Binding affinity to synthetic biotin-labeled 30-mer GC-rich duplex DNA in pH 7.4 EDTA buffer solution assessed as association rate constant in presence of 0.05 M NaCl at 25 degC by QCM sensogram analysis.
Experiment [9] can be described thus: Binding affinity to synthetic biotin-labeled 30-mer AT-rich duplex DNA in pH 7.4 EDTA buffer solution assessed as dissociation rate constant in presence of 0.05 M NaCl at 25 degC by QCM sensogram analysis.
Experiment [10] in a line: Binding affinity to synthetic biotin-labeled 30-mer GC-rich duplex DNA in pH 7.4 EDTA buffer solution assessed as ratio of association rate constant to dissociation rate constant in presence of 0.05 M NaCl at 25 degC by QCM sensogram analysis.
A short description of experiment [11]: Binding affinity to synthetic biotin-labeled 30-mer AT-rich duplex DNA in pH 7.4 EDTA buffer solution assessed as association rate constant in presence of 0.05 M NaCl at 25 degC by QCM sensogram analysis.

As to `COC(=O)c1c2cc[n+](CCOCCN)cc2c(C)c2c1[nH]c1ccccc12.[Cl-]`, the Ka turned out to be 111 ×10⁵ /M in [1] and 80 ×10⁵ /M in experiment [2].

For the molecule `Cc1c2c[n+](C)ccc2c(C(=O)NCCCCN)c2[nH]c3ccccc3c12`, the Ka was found to be 39.7 ×10⁵ /M in experiment [1] and 4.31 ×10⁵ /M in [2].

Regarding `CNC(=O)NCCNC(=O)c1c2cc[n+](C)cc2c(C)c2c1[nH]c1ccc(OC)cc12`, the Ka in experiment [3] worked out at 3.62 ×10⁵ /M; in [1], 3.62 ×10⁵ /M; in [2], 2.04 ×10⁵ /M; in experiment [5], 1.46 ×10⁵ /M. Besides, in experiment [4], the Ratio was in the range of 0.4 to 0.5.

Turning to `CNC(=O)NCCCCCNC(=O)c1c2cc[n+](C)cc2c(C)c2c1[nH]c1ccccc12`, the Ka in experiment [1] worked out at 2.69 ×10⁵ /M; in experiment [2] it was 2.14 ×10⁵ /M.

In the case of `CNC(=O)NCCOCCNC(=O)c1c2cc[n+](C)cc2c(C)c2c1[nH]c1ccccc12`, the Ka was found to be 1.68 ×10⁵ /M in experiment [1] and 1.89 ×10⁵ /M in experiment [2].

In the case of `CNC(=O)NCCCNC(=O)c1c2cc[n+](C)cc2c(C)c2c1[nH]c1ccccc12`, the Ka worked out at 1.5 ×10⁵ /M in experiment [1] and 1.72 ×10⁵ /M in experiment [2].

Take `COC(=O)c1c2cc[n+](CCN)cc2c(C)c2c1[nH]c1ccccc12.[Cl-]`: the figures for the Ka in experiment [1] and in [2] were 94.2 ×10⁵ /M and 39.5 ×10⁵ /M, respectively.

Regarding `Cc1c2c[n+](C)ccc2c(C(=O)NCCCN)c2[nH]c3ccccc3c12`, the Ka in [1] was 89.2 ×10⁵ /M; in experiment [2], 3.44 ×10⁵ /M.

Take `Cc1c2cc[n+](CCOCCN)cc2c(C)c2c1[nH]c1ccccc12.[Cl-]`: the Ka in experiment [3] amounted to 299 ×10⁵ /M; in experiment [1] it was 299 ×10⁵ /M; in [2] it was 65.1 ×10⁵ /M; in experiment [5], 92.8 ×10⁵ /M. Also, the Ratio in experiment [4] is 0.4 to 0.5.

On to `Cc1c2cc[n+](CCOCCN)cc2c(C)c2c1[nH]c1ccc(O)cc12.[Cl-]`, for which the Ka in experiment [3] is 387 ×10⁵ /M; in experiment [1], 387 ×10⁵ /M; in experiment [2], 311 ×10⁵ /M; in experiment [5] it was 155 ×10⁵ /M. For the same molecule, the Ratio in experiment [4] was in the range of 0.4 to 0.5.

Turning to `Cc1c2cnccc2c(C)c2c1c1ccccc1n2C`, the Ka in experiment [1] worked out at 6.88 ×10⁵ /M.

For `Cc1c2ccncc2c(C)c2c1[nH]c1ccc(O)cc12`, the Ka in [1] is 107 ×10⁵ /M.

As to `CNC(=O)NCCOCC[n+]1ccc2c(C)c3c(c(C)c2c1)c1cc(O)ccc1n3C`, the Ka in experiment [3] was determined as 21.2 ×10⁵ /M; in [1], 21.2 ×10⁵ /M; in [2], 4.5 ×10⁵ /M; in [5] it was 11.5 ×10⁵ /M. Also, the Ratio in experiment [4] lay within 0.4 to 0.5.

Regarding `CNC(=O)NCCNC(=O)c1c2ccncc2c(C)c2c1[nH]c1ccccc12`, the Ka was 2.01 ×10⁵ /M in [1] and 1.67 ×10⁵ /M in experiment [2].

Consider `COc1ccc2[nH]c3c(C(=O)NCCN)c4ccncc4c(C)c3c2c1`, for which the Ka was found to be 20.5 ×10⁵ /M in [3], 20.5 ×10⁵ /M in experiment [1], 3.88 ×10⁵ /M in [2] and 7.41 ×10⁵ /M in [5]. For the same molecule, the Ratio in [4] was in the range of 0.4 to 0.5.

On to `CNC(=O)NCCNC(=O)c1c2ccncc2c(C)c2c1[nH]c1ccc(OC)cc12`, for which the Ka in [1] was 3.03 ×10⁵ /M; in experiment [2], 4.75 ×10⁵ /M.

`Cc1c2ccncc2c(C)c2c1[nH]c1ccccc12` [ELLIPTECINE]: the Ka is 12.3 ×10⁵ /M in experiment [1] and 4.2 ×10⁵ /M in experiment [2].

Regarding `Cc1c2c[n+](C)ccc2c(C(=O)NCCCCCN)c2[nH]c3ccccc3c12`, the Ka in [1] came to 24.3 ×10⁵ /M; in experiment [2], 2.86 ×10⁵ /M.

Regarding `Cc1c2c[n+](C)ccc2c(C(=O)NCCN)c2[nH]c3ccccc3c12`, the Ka turned out to be 21.1 ×10⁵ /M in [3], 21.1 ×10⁵ /M in experiment [1], 3.81 ×10⁵ /M in experiment [2] and 7.55 ×10⁵ /M in [5]. The Ratio in [4] is 0.4 to 0.5.

Regarding `CNC(=O)NCCNC(=O)c1c2cc[n+](C)cc2c(C)c2c1[nH]c1ccccc12`, the Ka in [3] was determined as 2.87 ×10⁵ /M; in [1] it was 2.87 ×10⁵ /M; in experiment [2], 1.87 ×10⁵ /M; in [5], 0.899 ×10⁵ /M. In [4], the Ratio is 0.4 to 0.5.

Consider `COc1ccc2[nH]c3c(C(=O)NCCN)c4cc[n+](C)cc4c(C)c3c2c1`, for which the Ratio in experiment [6] is 1.71 ×10⁶ /M; in experiment [10] it was 11.2 ×10⁶ /M; in experiment [4], 0.067. Moreover, the K stood at 1.64 ×10⁻³ /s in experiment [7], 1.82 ×10⁴ /M/s in experiment [8], 12.5 ×10⁻³ /s in experiment [9] and 2.14 ×10⁴ /M/s in [11]. Moreover, the Ka in experiment [3] came to 124 ×10⁵ /M; in experiment [1] it was 124 ×10⁵ /M; in [2], 19.9 ×10⁵ /M; in experiment [5], 8.28 ×10⁵ /M.

With `CNC(=O)NCCOCC[n+]1ccc2c(C)c3[nH]c4ccc(O)cc4c3c(C)c2c1.[Cl-]`, the Ka is 32.8 ×10⁵ /M in [3], 32.8 ×10⁵ /M in experiment [1], 6.81 ×10⁵ /M in [2] and 13 ×10⁵ /M in [5]. For the same molecule, the Ratio in [4] lay within 0.4 to 0.5.

For the molecule `Cc1c2c[n+](C)ccc2c(C(=O)NCCNCCN)c2[nH]c3ccccc3c12`, the Ka came to 4.85 ×10⁵ /M in experiment [1] and 2.64 ×10⁵ /M in [2].

For the molecule `COC(=O)c1c2cc[n+](CCNCCN)cc2c(C)c2c1[nH]c1ccccc12`, the Ka is 82 ×10⁵ /M in experiment [1] and 16 ×10⁵ /M in experiment [2].

On to `CNC(=O)NCCCCNC(=O)c1c2cc[n+](C)cc2c(C)c2c1[nH]c1ccccc12`, for which the figures for the Ka in experiment [1] and in experiment [2] were 1.83 ×10⁵ /M and 2.49 ×10⁵ /M, respectively.

With `COC(=O)c1c2cc[n+](C)cc2c(C)c2c1[nH]c1ccccc12`, the Ka in [1] worked out at 15.6 ×10⁵ /M; in experiment [2], 10.5 ×10⁵ /M.

With `Cc1c2cnccc2c(C(=O)NCCN)c2[nH]c3ccccc3c12`, the Ka is 14.5 ×10⁵ /M in [3], 14.5 ×10⁵ /M in experiment [1], 1.82 ×10⁵ /M in experiment [2] and 5.31 ×10⁵ /M in [5]. Also, the Ratio in experiment [4] fell in the range of 0.4 to 0.5.

Turning to `Cc1c2cc[n+](CCN)cc2c(C)c2c1[nH]c1ccccc12`, the Ka came out at 120 ×10⁵ /M in experiment [1] and 40.3 ×10⁵ /M in [2].

Take `Cc1c2c[n+](CCCCCN)ccc2c(C)c2c1c1cc(O)ccc1n2C.[Cl-]`: the Ka in [3] is 454 ×10⁵ /M; in experiment [1], 454 ×10⁵ /M; in experiment [2] it was 137 ×10⁵ /M; in [5], 272 ×10⁵ /M. In addition, the Ratio in [4] lay in the range of 0.4 to 0.5.

Regarding `CNC(=O)NCCNCCNC(=O)c1c2cc[n+](C)cc2c(C)c2c1[nH]c1ccccc12`, the values for the Ka in experiment [1] and in experiment [2] were 1.66 ×10⁵ /M and 2.2 ×10⁵ /M, respectively.

Take `Cc1c2c[n+](C)ccc2c(C(=O)NCCOCCN)c2[nH]c3ccccc3c12`: the Ka in experiment [1] came out at 53.7 ×10⁵ /M; in experiment [2] it was 4.42 ×10⁵ /M.

In the case of `Cc1c2cc[n+](C)cc2c(C)c2c1[nH]c1ccccc12`, the K in experiment [7] stood at 1.51 ×10⁻³ /s; in [8], 0.51 ×10⁴ /M/s. Moreover, in [10], the Ratio amounted to 3.4 ×10⁶ /M. The Ka in experiment [1] turned out to be 29.9 ×10⁵ /M; in [2], 8.37 ×10⁵ /M.

The record behind these values is ChEMBL document CHEMBL3877309, “Determination of binding modes and binding constants for the complexes of 6H-pyrido[4,3-b]carbazole derivatives with DNA” (Bioorg Med Chem, 2017).
